Active and inactive are the calls of the source. No cut-off for these calls is given here.
Columns and labels:
[1] = biological target: T1, DNA oxidative demethylase ALKBH2 (Homo sapiens) (UniProt Q6NS38); experiment: Stabilization of mCherry-fused Flag-tagged ALKBH2 (unknown origin) transfected in human U87 cells at 5 uM incubated for 12 hrs at 44 to 50 degreeC by CETSA; assay type: cell-based
T1 sequence (whole entry): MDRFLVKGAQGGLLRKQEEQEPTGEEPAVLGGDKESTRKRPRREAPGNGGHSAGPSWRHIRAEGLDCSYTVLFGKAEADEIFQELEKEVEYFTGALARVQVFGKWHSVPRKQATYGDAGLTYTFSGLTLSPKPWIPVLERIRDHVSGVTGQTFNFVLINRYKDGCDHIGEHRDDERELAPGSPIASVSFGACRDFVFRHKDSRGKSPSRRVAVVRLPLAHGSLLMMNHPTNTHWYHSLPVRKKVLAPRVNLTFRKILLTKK

[2] = tested on: U-87MG ATCC; experiment: Upregulation of DNA 3meC level in human U87 cells ast 5 uM incubated for 48 hrs by Dot blot assay; assay type: functional, cell-based
[3] = biological target: T1, DNA oxidative demethylase ALKBH2 (Homo sapiens); experiment: Induction of thermal stabilization of ALKBH2 (56 to 261 residues)(unknown origin) assessed as change in melting temperature by DSF assay; details: dose 0.78-200 µM
[4] = tested on: U-87 MG; experiment: Induction of apoptosis in human U87 cells assessed as decrease in PDGFB mRNA level incubated for 48 hrs by RT-qPCR analysis; assay type: functional, cell-based; details: U-87MG ATCC, dose 1-10 µM
[5] = tested on: U-87 MG; experiment: Induction of apoptosis in human U87 cells assessed as increase in cleaved caspase-3 level at 1 to 10 uM incubated for 48 hrs by Western blot analysis; assay type: functional, cell-based; details: U-87MG ATCC, dose 1-10 µM
[6] = tested on: U-87 MG; experiment: Induction of apoptosis in human U87 cells assessed as decrease in Bcl-xL level at 1 to 10 uM incubated for 48 hrs by Western blot analysis; assay type: functional, cell-based; details: U-87MG ATCC, dose 1-10 µM
[7] = tested on: U-87 MG; experiment: Induction of apoptosis in human U87 cells assessed as decrease in BMI1 mRNA level incubated for 48 hrs by RT-qPCR analysis; assay type: functional, cell-based; details: U-87MG ATCC, dose 1-10 µM
[8] = tested on: U-87 MG; experiment: Induction of apoptosis in human U87 cells assessed as decrease in Bcl-2 level at 1 to 10 uM incubated for 48 hrs by Western blot analysis; assay type: functional, cell-based; details: U-87MG ATCC, dose 1-10 µM
[9] = tested on: U-87 MG; experiment: Induction of apoptosis in human U87 cells assessed as decrease in Bcl-2 mRNA level incubated for 48 hrs by RT-qPCR analysis; assay type: functional, cell-based; details: U-87MG ATCC, dose 1-10 µM
[10] = tested on: U-87 MG; experiment: Induction of apoptosis in human U87 cells assessed as decrease in PARP level at 1 to 10 uM incubated for 48 hrs by Western blot analysis; assay type: functional, cell-based; details: U-87MG ATCC, dose 1-10 µM
[11] = tested on: U-87 MG; experiment: Induction of apoptosis in human U87 cells assessed as increase in Bax mRNA level incubated for 48 hrs by RT-qPCR analysis; assay type: functional, cell-based; details: U-87MG ATCC, dose 1-10 µM

Activity [1] | Activity [3] | SMILES | Activity [2] | Activity [4] | Activity [5] | Activity [6] | Activity [7] | Activity [8] | Activity [9] | Activity [10] | Activity [11]
Active | Dose-dependent-effect | CC(C)(C)C(NC(=O)c1ccc(-n2cc(C(=O)O)cn2)nc1)c1ccccc1 (stereo not drawn) | Active | – | – | – | – | – | – | – | –
Active | – | CCOC(=O)c1cnn(-c2ccc(C(=O)NC(c3ccccc3)C(C)(C)C)cn2)c1 (stereo not drawn) | Active | Dose-dependent-effect | Active | Active | Dose-dependent-effect | Active | Dose-dependent-effect | Active | Dose-dependent-effect

Source: ChEMBL document CHEMBL6096662, “Discovery and structure-activity relationship study of nicotinamide derivatives as DNA demethylase ALKBH2 inhibitors” (Eur J Med Chem, 2025)
